The target in the test is SRSF protein kinase 2 (Homo sapiens, UniProt P78362).

By UniProt entry, the sequences of proteins in these tests, tags left out.
UniProt P78362, whole entry: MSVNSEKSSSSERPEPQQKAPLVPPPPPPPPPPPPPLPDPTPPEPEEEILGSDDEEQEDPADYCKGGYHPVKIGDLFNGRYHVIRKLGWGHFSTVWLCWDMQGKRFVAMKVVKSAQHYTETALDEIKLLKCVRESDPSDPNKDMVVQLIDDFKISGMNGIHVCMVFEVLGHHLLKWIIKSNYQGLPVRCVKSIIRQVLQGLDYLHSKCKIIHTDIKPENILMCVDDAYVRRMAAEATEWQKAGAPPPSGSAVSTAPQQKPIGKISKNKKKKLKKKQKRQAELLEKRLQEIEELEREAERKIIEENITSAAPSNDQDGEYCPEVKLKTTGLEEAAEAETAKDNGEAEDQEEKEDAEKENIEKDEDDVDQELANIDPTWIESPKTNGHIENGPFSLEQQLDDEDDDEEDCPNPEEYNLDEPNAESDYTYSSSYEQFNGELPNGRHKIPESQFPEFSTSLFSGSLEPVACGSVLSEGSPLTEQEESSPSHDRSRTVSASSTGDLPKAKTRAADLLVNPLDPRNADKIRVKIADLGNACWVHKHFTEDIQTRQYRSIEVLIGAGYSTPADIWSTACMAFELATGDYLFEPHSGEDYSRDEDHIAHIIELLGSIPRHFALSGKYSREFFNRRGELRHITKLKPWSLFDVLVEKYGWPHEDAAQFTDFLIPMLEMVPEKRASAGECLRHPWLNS

For one compound, IC50 results are on record in ChEMBL document CHEMBL5104139, “A critical update on the strategies towards small molecule inhibitors targeting Serine/arginine-rich (SR) proteins and Serine/arginine-rich proteins related kinases in alternative splicing” (Bioorg Med Chem, 2022).

By IC50 is commonly meant the midpoint of a concentration-inhibition curve. High values mean a need for much substance, low ones inhibition by little substance. The compound `CCc1cc2c(cc1-c1cccc(S(=O)(=O)F)c1)C(C)(C)c1[nH]c3cc(C#N)ccc3c1C2=O` displayed an IC50 of 98 nM.
